Literature values as cited in PMC7935113, “Development and in vivo evaluation of intranasal formulations of parathyroid hormone (1-34)” (Drug Delivery, 2021).

Conditions: in vivo; cited from earlier work

desmopressin
bioavailability: lower than 3%
